Results: paper PMC5015106 (Scientific Reports, 2016)
Like-named read-outs stand apart in the source and are kept apart here.

Chains of the proteins cited; added tags and fusions are not shown. Residues count along the entry.
UniProt Q96IY4, 115-423 limits assumed: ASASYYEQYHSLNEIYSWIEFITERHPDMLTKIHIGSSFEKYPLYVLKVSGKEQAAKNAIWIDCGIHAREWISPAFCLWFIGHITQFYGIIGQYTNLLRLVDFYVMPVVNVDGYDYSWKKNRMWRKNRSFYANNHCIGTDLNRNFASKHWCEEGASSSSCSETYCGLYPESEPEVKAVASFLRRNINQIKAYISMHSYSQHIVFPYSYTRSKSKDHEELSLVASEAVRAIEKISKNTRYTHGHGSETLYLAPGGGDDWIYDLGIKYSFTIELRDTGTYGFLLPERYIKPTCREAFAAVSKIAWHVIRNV

Assays:
TAFIa [1] = target: T1, TAFIa (Homo sapiens, UniProt Q96IY4); experiment: TAFIa enzymatic inhibition assay (Actichrome plasma TAFIa activity kit); type: biochemical; settings: read-out: IC50 in nM against TAFIa, duplicate determination
TAFIa [2] = target: T1, TAFIa; settings: read-out: IC50 against TAFIa; enzymatic assay; cited from earlier work

Row | Compound | IC50 (TAFIa [1]) | IC50 (TAFIa [2])
1 | CC[C@@H](C)[C@@H]1NC(=O)[C@H](NC(=O)N[C@@H](Cc2ccc(O)cc2)C(=O)O)CCCCNC(=O)[C@H](Cc2ccccc2)NC(=O)[C@H](C)N(C)C(=O)[C@H](CCc2ccc(O)cc2)NC1=O | 400 nM | –
2 | CC(C)[C@@H]1NC(=O)[C@H](NC(=O)N[C@@H](CCCNC(=N)N)C(=O)O)CCCCNC(=O)[C@H](Cc2ccccc2)NC(=O)[C@H](C)N(C)C(=O)[C@H](CCc2ccc(O)cc2)NC1=O [Compound 1, Anabaenopeptin B] | – | 1.5 nM
3 | CC(C)C1NC(=O)C(NC(=O)NC(CCCCN)C(=O)O)CCCCNC(=O)C(Cc2ccccc2)NC(=O)C(C)N(C)C(=O)C(CCc2ccc(O)cc2)NC1=O (centres unmarked) [Compound 2, Anabaenopeptin C] | 1.9 nM | 1.9 nM
4 | CC[C@H](C)[C@@H]1NC(=O)[C@H](NC(=O)N[C@@H](CCCNC(=N)N)C(=O)O)CCCCNC(=O)[C@H](Cc2ccccc2)NC(=O)[C@H](C)N(C)C(=O)[C@H](CCc2ccc(O)cc2)NC1=O [Compound 3, Anabaenopeptin F] | – | 1.5 nM
